Literature values as cited in publication PMC7526454 (JCI Insight, 2020).

Settings: native ligand, during meal induced incretin secretion; cited from earlier work

Structure (SMILES): CC[C@H](C)[C@H](NC(=O)[C@H](CO)NC(=O)[C@H](Cc1ccc(O)cc1)NC(=O)[C@H](CC(=O)O)NC(=O)[C@H](CO)NC(=O)[C@@H](NC(=O)[C@H](Cc1ccccc1)NC(=O)[C@@H](NC(=O)CNC(=O)[C@H](CCC(=O)O)NC(=O)[C@H](C)NC(=O)[C@@H](N)Cc1ccc(O)cc1)[C@@H](C)O)[C@@H](C)CC)C(=O)N[C@@H](C)C(=O)N[C@@H](CCSC)C(=O)N[C@@H](CC(=O)O)C(=O)N[C@@H](CCCCN)C(=O)N[C@H](C(=O)N[C@@H](Cc1c[nH]cn1)C(=O)N[C@@H](CCC(N)=O)C(=O)N[C@@H](CCC(N)=O)C(=O)N[C@@H](CC(=O)O)C(=O)N[C@@H](Cc1ccccc1)C(=O)N[C@H](C(=O)N[C@@H](CC(N)=O)C(=O)N[C@@H](Cc1c[nH]c2ccccc12)C(=O)N[C@@H](CC(C)C)C(=O)N[C@@H](CC(C)C)C(=O)N[C@@H](C)C(=O)N[C@@H](CCC(N)=O)C(=O)N[C@@H](CCCCN)C(=O)NCC(=O)N[C@@H](CCCCN)C(=O)N[C@@H](CCCCN)C(=O)N[C@@H](CC(N)=O)C(=O)N[C@@H](CC(=O)O)C(=O)N[C@@H](Cc1c[nH]c2ccccc12)C(=O)N[C@@H](CCCCN)C(=O)N[C@@H](Cc1c[nH]cn1)C(=O)N[C@@H](CC(N)=O)C(=O)N[C@H](C(=O)N[C@H](C(=O)N[C@@H](CCC(N)=O)C(N)=O)[C@@H](C)O)[C@@H](C)CC)C(C)C)[C@@H](C)CC [GIP(1-42), GIP(1-42)NH2]
- Css (free): range of Cmax values: 50-250^E pM
